Target: Amine oxidase [flavin-containing] B (Homo sapiens, UniProt P27338)

Protein sequences, listed by entry. Tags and fused reporters are not part of them.
UniProt P27338, whole entry: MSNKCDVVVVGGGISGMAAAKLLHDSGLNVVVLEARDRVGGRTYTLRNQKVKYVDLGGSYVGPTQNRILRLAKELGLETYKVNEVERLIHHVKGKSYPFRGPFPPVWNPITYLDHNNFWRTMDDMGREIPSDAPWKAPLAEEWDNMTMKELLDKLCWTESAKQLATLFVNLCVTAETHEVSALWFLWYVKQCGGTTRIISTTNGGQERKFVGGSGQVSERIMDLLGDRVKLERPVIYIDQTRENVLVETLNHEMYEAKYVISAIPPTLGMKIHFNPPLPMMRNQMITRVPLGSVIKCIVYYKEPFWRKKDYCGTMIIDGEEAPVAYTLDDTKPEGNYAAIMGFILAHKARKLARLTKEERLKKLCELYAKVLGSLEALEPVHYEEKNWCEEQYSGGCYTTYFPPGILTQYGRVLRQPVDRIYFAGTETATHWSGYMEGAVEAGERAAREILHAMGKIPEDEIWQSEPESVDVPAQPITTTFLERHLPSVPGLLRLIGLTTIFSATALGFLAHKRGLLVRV

NC1CCC(N[C@@H]2C[C@H]2c2ccccc2)CC1 (stereo partly specified) gave an IC50 greater than 100 µM.
